Assay results reported in patent US4835182A (priority 1987, dated 1989).

Test: Brain/plasma concentration integral ratio following administration
Details: following administration to animal model or humans

O=C(O)Cc1ccc(N(CCCl)CCCl)cc1
mean brain/plasma concentration integral ratio: 0.01
